Measured values as given in patent publication US6774144B1, “Methods and formulations for the treatment of infectious bursal disease in avian subjects” (The University of North Carolina at Chapel Hill, priority 1999, dated 2004).

Tested on: IBDV, APHIS strain

**Q.** How did the “surviving chicks: organ weights, histopathology, and flow cytometry” value (in vivo) turn out when `N=C(N)c1ccc2oc3ccc(C(=N)N)cc3c2c1` [SW066] was run?
**A.** appeared normal

**Q.** What about the “delay of embryo death” value (ten day old chick embryos) of the same compound?
**A.** approximately 24 hours

**Q.** And the “effect on EID50” value (ten day old chick embryos, chorio-allantoic membrane route)?
**A.** did not alter the EID50
